Source: US9540377B2, “2,6,7,8 substituted purines as HDM2 inhibitors” (Merck Sharp & Dohme Corp., priority 2013, dated 2017)

Protein sequences, listed by entry. Tags and fused reporters are not part of them. Residues count along the entry.
UniProt Q00987, 17-125: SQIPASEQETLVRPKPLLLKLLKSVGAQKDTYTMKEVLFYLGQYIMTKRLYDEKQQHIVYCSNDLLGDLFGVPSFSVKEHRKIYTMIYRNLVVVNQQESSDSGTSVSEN

Target: HDM2 (truncated, residues 17 to 125, containing p53 binding surface) (Homo sapiens (Human), UniProt Q00987)
Test: HDM2 FRET assay (inhibition of binding of FITC labeled p53-site peptide to HDM2)
Excerpt: (containing p53 binding surface, Science (1994) 265, 346-355), with N-terminal His and Thioredoxin tag was generated in pET32a expression vector and expressed in E. coli strain BL21(DE3)Rosetta. […] IC50 DETERMINATIONS: Dose-response curves were plotted from the inhibition data, from 10 point serial dilutions of inhibitory compounds. Concentration of compound was plotted against em520/Cem495 ratio signal. To generate IC50 values, the dose-response curves were fitted to a standard sigmoidal curve and IC50 values were derived by nonlinear regression analysis.

SMILES	IC50 (Table 23) [nM]	further results
C[C@H]1CC[C@H](Cn2c(N3CCO[C@H]4CCCC[C@H]43)nc3nc(-c4n[nH]c(=O)o4)nc(-c4cncc(Cl)c4)c32)CC1 (racemic) [Example 16.128, 5-{6-(5-chloropyridin-3-yl)-7-[(trans-4-methylcyclohexyl)methyl]-8-[(cis)-octahydro-4H-1,4-benzoxazin-4-yl]-7H-purin-2-yl}-1,3,4-oxadiazol-2(3H)-one]	–	IC50 (Table 16): 75.6 nM
COC(c1ccccn1)c1nc2nc(-c3noc(=O)[nH]3)nc(-c3cccc(Cl)c3)c2n1C[C@H]1CC[C@H](C)CC1 (single isomer, unassigned) [Example 23.46, 3-{6-(3-chlorophenyl)-8-[methoxy(pyridin-2-yl)methyl]-7-[(trans-4-methylcyclohexyl)methyl]-7H-purin-2-yl}-1,2,4-oxadiazol-5(4H)-one]	8.27	–
COC1(c2nc3nc(-c4noc(=O)[nH]4)nc(-c4cncc(Cl)c4)c3n2C[C@H]2CC[C@H](C)CC2)CCOCC1C (single isomer, unassigned) [Example 23.97, 1,5-anhydro-3-C-[6-(5-chloropyridin-3-yl)-7-[(trans-4-methylcyclohexyl)methyl]-2-(5-oxo-4,5-dihydro-1,2,4-oxadiazol-3-yl)-7H-purin-8-yl]-2,4-dideoxy-2-methyl-3-O-methylpentitol]	11.3	–
C[C@H]1CC[C@H](Cn2c(C(O)C3CCOCC3)nc3nc(-c4n[nH]c(=O)o4)nc(-c4cncc(Cl)c4)c32)CC1 (mixture of isomers) [Example 23.19, 5-{6-(5-chloropyridin-3-yl)-8-[hydroxy(tetrahydro-2H-pyran-4-yl)methyl]-7-[(trans-4-methylcyclohexyl)methyl]-7H-purin-2-yl}-1,3,4-oxadiazol-2(3H)-one]	104	–
COC(C)(c1ccccn1)c1nc2nc(-c3nc(=O)o[nH]3)nc(-c3cccc(Cl)c3)c2n1C[C@H]1CC[C@H](C)CC1 (single isomer, unassigned) [Example 23.52, 3-{6-(3-chlorophenyl)-8-[1-methoxy-1-(pyridin-2-yl)ethyl]-7-[(trans-4-methylcyclohexyl)methyl]-7H-purin-2-yl}-1,2,4-oxadiazol-5(2H)-one]	6.22	–
C[C@@H]1OCCN(c2nc3nc(-c4noc(=O)[nH]4)nc(-c4cccc(Cl)c4)c3n2C[C@H]2CC[C@H](C)CC2)[C@@H]1C (racemic) [Example 16.100, 3-{6-(3-chlorophenyl)-8-[(cis)-2,3-dimethylmorpholin-4-yl]-7-[(trans-4-methylcyclohexyl)methyl]-7H-purin-2-yl}-1,2,4-oxadiazol-5(4H)-one]	–	IC50 (Table 16): 51 nM
C[C@@H](Nc1nc([S+]([O-])CC(F)(F)F)nc2nc(N3CCOC[C@H]3c3ccccc3)n(C[C@H]3CC[C@H](C)CC3)c12)C1CCC1 (single isomer, unassigned) [Example 14.17]	–	IC50 (Table 14): 321 nM
C[C@H]1CC[C@H](Cn2c(C3OCCc4ccccc43)nc3nc(-c4noc(=O)[nH]4)nc(-c4cncc(Cl)c4)c32)CC1 (single isomer, unassigned) [Example 23.105, 3-{6-(5-chloropyridin-3-yl)-8-(3,4-dihydro-1H-isochromen-1-yl)-7-[(trans-4-methylcyclohexyl)methyl]-7H-purin-2-yl}-1,2,4-oxadiazol-5(4H)-one]	2.16	–
CC(F)(c1cccc(Cl)c1F)c1nc2nc(-c3n[nH]c(=O)o3)nc(-c3cncc(Cl)c3)c2n1C[C@H]1CC[C@H](C)CC1 (single isomer, unassigned) [Example 23.59, 5-{8-[1-(3-chloro-2-fluorophenyl)-1-fluoroethyl]-6-(5-chloropyridin-3-yl)-7-[(trans-4-methylcyclohexyl)methyl]-7H-purin-2-yl}-1,3,4-oxadiazol-2(3H)-one]	0.896	–
